# Test results reported in patent publication US20210060030A1, “METHOD FOR TREATING CANCER” (Epizyme, Inc., priority 2014, published 2021).
# How the values were obtained:
# [1] = tested on: mutant EZH2 or WT EZH2 germinal center lymphoma cell lines; assay: Combination with drugs that target the BCR/PI3K pathways in germinal center lymphoma cell lines; format: cell-based; settings: cell lines harboring mutant EZH2 or WT EZH2 germinal center lymphoma cell lines
# [2] = human, in vivo
# Procedure: Blood samples for PK and skin biopsies for PD analysis were collected. PD samples were stained with H3K27me3 specific antibody and percent change from baseline in H3K27Me3 positive cells was determined. PK/PD relationship was analyzed. Tumor assessments were performed every 8 weeks.
# Doses administered were 100 mg BID as a suspension (n=3) or tablet (n=3) formulation and 200, 400, 800 and 1600 mg as tablet formulation.
# [3] = tested on: EZH2 mutant lymphoma cells; assay: Killing of EZH2 mutant lymphoma cells; format: cell-based
smiles,measurement,setting,value
CCN(c1cc(-c2ccc(CN3CCOCC3)cc2)cc(C(=O)NCc2c(C)cc(C)[nH]c2=O)c1C)C1CCOCC1 [EPZ-6438],effect of combination with drugs that target the BCR/PI3K pathways,[1],either additive or synergistic effects
same,accumulation ratio (R=AUCD15/AUCD1),[2]; 100 mg,approximately 74%
same,accumulation ratio (R=AUCD15/AUCD1),[2]; 1600 mg,~44%
same,effect on EZH2 mutant lymphoma cells,[3],killing

# Where two headings read alike, the source gives them in different places.
